The record followed here is PMC8296307 (Epilepsy research, 2021).

Protein sequences, listed by entry. Tags and fused reporters are not part of them. Residues count along the entry.
UniProt P28335, 33-458: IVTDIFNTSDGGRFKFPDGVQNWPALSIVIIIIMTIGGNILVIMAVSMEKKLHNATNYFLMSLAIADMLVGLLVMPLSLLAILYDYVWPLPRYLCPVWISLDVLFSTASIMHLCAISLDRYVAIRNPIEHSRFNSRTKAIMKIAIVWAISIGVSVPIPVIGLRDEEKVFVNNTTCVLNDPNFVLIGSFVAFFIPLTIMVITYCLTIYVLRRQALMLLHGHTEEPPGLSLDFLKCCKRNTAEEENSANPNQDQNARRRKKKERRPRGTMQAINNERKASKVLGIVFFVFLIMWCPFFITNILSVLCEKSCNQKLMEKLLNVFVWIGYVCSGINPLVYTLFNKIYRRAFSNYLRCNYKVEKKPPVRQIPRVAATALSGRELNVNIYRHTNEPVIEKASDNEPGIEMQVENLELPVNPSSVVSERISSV

pKi: −log10 of the molar value.

The assay concerns the target h5-HT2C-INI (Homo sapiens, UniProt P28335). Format: binding.

`CN1C[C@@H](NS(=O)(=O)N(C)C)C[C@@H]2c3cccc4c3c(cn4C)C[C@H]21` [Mesulergine] had a negative logarithm of the Ki (pKi) of 8.42.
